This is a selection; strong and weak results do not stand in their true shares. Some results for these compounds are left out of this collection, so the calls shown say nothing about other tests. The source made the active and inactive calls. The call rests on the fitted dose curve; in most records, active means well fitted inhibition curve with a large enough effect; inconclusive means small, poorly fitted or top-dose-only effect, or effect the other way; inactive means flat fitted curve, though single readings scatter.
Target: Alpha-galactosidase A (Homo sapiens) (UniProt P06280)
Assay: qHTS Assay for Inhibitors and Activators of Human alpha-Galactosidase From Spleen Homogenate;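 further: 0% = enzyme with vehicle and -100% = no enzyme basal signal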
Conditions: 4MU-alpha-Gal fluorescence, 40 min; at 80 µM (top of the series)
Text: NIH Chemical Genomics Center [NCGC] NIH Molecular Libraries Probe Production Centers Network [MLPCN] MLPCN Grant: R03 MH084842-01 Assay Submitter (PI): Wei Zheng NCGC Assay Overview: Alpha-galactosidase is a homodimeric glycoprotein that hydrolyzes the terminal alpha-galactosyl moieties from glycolipids and glycoproteins. Deficiency of this enzyme results in Fabry Disease with progressive accumulation of globotriaosylceramide and other glycosphingolipids in vascular endothelial cells that causes renal failure, myocardial infarction and stroke, and premature death in patients. It has been reported that the improper folding and trafficking of alpha-galactosidase resulting from genetic mutations may account for a significant number of Fabry patients. […] We optimized this alpha-galactosidase assay in 1536-well plate format for identification of novel small molecule inhibitors or activators with structures other than the sugar analogs in order to develop new pharmacological chaperones. In particular, this assay is directed towards discovering compounds active in more natural setting, tissue homogenate, that may have been missed by screens of the purified enzyme under more stringent conditions.
NCGC Assay Protocol Summary: This is a fluorogenic enzyme assay with 4-methylumbelliferyl-alpha-D-galactopyranoside as the substrate and human spleen homogenate containing alpha-galactosidase as the enzyme preparation. Upon hydrolysis of this fluorogenic substrate, the resulting product, 4-methylumbelliferone (which excites at 365 nm and emits at 440 nm) can be detected by a fluorescence plate reader. Data were normalized to the controls for basal activity (without enzyme) and 100% activity (with enzyme). The AC50 values were determined from concentration-response data modeled with the standard Hill equation. Assay buffer: 50 mM citric acid (titrated with potassium phosphate to pH 5.0), 0.01% Tween-20 (pH 5.0 is an optimal condition for this enzyme assay) 1536-well assay protocol for the alpha-galactosidase from human spleen homogenate: (1) Add 2 ul/well spleen homogenate (1 ug) (2) Add 23 nL compounds in DMSO solution. The final titration was 0.5 nM to 58 uM. (3) Add 2 ul of substrate (1 mM final) (4) Incubate at 37C for 40 min (5) Add 2 ul stop solution (1M NaOH and 1M Glycine mixture, pH 10) (6) Detect the assay plate in a ViewLux plate reader (PerkinElmer) with Ex=365 nm and Em=440nm. Keywords: Alpha-galactosidase, Fabry Disease, pharmacological chaperone, chaperone therapy, high throughput screening, alpha- galactosidase inhibitor, MLSMR, MLSCN, NIH Roadmap, qHTS and NCGC

By UniProt entry, the sequences of proteins in these tests, tags left out. Residues count along the entry.
UniProt P06280, 32-429 limits assumed: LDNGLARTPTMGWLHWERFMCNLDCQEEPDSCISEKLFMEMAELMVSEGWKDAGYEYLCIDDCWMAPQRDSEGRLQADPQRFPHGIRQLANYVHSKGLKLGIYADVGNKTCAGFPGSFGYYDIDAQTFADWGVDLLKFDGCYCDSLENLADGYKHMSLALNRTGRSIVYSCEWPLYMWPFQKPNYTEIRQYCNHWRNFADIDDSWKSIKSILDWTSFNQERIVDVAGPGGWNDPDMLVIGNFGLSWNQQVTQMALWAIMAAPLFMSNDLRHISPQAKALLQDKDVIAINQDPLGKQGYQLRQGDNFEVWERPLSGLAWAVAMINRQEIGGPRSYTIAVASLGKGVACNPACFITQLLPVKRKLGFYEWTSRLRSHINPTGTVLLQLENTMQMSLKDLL

Row | Compound | activity change, negative = inhibition
1 | CC(C)N1C(=O)CC2(CCN(CCOC(=O)C(O)(c3ccccc3)c3ccccc3)CC2)C1=O | inactive: 1.94%
2 | CCN(CC)CC(C)C(C)OC(=O)C(O)(c1ccccc1)c1ccccc1 (stereo unspecified) | inactive: -1.91%
3 | O=C(NCC1(N2CCCCC2)CCCCC1)c1cc([N+](=O)[O-])ccc1Cl | inactive: 2.44%
4 | CCN1CCCC(OC(=O)C2(O)c3ccccc3C=Cc3ccccc32)C1 (stereo unspecified) | inactive: -9.26%
5 | C=CCN1CCN(CCOC(=O)C(O)(c2ccccc2)c2ccccc2)CC1 | inactive: -8.78%
6 | CN(C)C1CCCC1OC(=O)C(O)(c1ccccc1)c1ccccc1 (stereo unspecified) | inactive: 3.56%
7 | Cc1ccccc1C(=O)NCC1(N2CCCCC2)CCCCC1 | inactive: 3.35%
8 | COc1cccc(C(=O)NCC2(N3CCCCC3)CCCCC2)c1 | inactive: 5.25%
9 | CN(C)c1cccc(C(=O)NCC2(N(C)C)CCCCC2)c1 | inactive: 12.6%
10 | COc1ccc(Br)c(C(=O)NCC2(N3CCCCC3)CCCCC2)c1 | inactive: -9.52%
11 | O=C(OC1CN2CCC1CC2)C(CO)(c1ccccc1)c1ccccc1 (stereo unspecified) | inactive: -0.111%
